Reference: publication PMC7036995 (Molecules, 2020)

Sequences of proteins named here, by UniProt entry; tags and fusion partners are left off. Residues count along the entry.
UniProt P02769, 25-607: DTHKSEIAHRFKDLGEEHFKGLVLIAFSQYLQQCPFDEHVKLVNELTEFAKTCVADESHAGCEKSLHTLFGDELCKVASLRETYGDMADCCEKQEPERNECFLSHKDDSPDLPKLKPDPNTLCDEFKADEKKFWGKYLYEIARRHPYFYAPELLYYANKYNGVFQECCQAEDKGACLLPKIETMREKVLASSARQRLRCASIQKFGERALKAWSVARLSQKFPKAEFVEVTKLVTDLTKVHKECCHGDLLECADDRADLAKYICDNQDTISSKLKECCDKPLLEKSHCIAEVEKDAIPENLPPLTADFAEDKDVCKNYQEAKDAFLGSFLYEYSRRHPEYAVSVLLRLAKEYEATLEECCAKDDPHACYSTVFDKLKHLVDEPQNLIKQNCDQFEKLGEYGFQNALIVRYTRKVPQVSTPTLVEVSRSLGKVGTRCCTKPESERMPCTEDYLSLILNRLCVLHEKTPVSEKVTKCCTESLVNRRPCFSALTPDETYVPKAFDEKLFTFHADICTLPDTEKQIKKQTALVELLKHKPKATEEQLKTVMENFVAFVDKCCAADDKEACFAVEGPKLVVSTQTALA
UniProt P02768, 25-609: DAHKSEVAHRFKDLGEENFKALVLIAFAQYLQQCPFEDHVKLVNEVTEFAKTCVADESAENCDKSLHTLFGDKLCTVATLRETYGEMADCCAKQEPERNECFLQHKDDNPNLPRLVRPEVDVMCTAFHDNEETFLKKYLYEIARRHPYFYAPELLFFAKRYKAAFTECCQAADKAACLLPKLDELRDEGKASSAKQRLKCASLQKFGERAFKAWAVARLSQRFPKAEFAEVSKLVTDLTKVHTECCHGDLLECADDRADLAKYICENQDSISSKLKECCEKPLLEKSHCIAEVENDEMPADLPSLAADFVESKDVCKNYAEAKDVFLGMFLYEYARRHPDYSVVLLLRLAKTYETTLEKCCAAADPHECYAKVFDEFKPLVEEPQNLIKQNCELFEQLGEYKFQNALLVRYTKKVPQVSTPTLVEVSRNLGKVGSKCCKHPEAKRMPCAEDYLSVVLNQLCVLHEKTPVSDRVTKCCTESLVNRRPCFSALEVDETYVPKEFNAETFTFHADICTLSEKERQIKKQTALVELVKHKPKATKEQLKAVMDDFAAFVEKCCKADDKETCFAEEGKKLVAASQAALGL

Key:
[1] = biological target: bovine serum albumin (BSA) (Bos taurus, UniProt P02769); conditions: λEX = 295 nm, T = 310.15 K, pH 7.4, BSA 5 μM
[2] = biological target: human serum albumin (HSA) (Homo sapiens, UniProt P02768); conditions: pH 7.4
[3] = ratio protein:ligand 1:1, HSA 1 μM, T = 310.15 K

change of BSA fluorescence with increasing ligand concentration [1] | α-Helix Content [2, 3] [%] | α-Helix Content ([2]; ratio protein:ligand 1:4, HSA 1 μM, T = 310.15 K) [%] | α-Helix Content ([2]; ratio protein:ligand 1:0.5, HSA 1 μM, T = 310.15 K) [%] | α-Helix Content ([2]; ratio protein:ligand 1:2, HSA 1 μM, T = 310.15 K) [%] | α-Helix Content ([2]; ratio protein:ligand 1:3, HSA 1 μM, T = 310.15 K) [%] | Compound | α-Helix Content [2]
decrease | 65.0 ± 1.7 | 70.2 ± 1.3 |  |  |  | CCOC(=O)[C@H](CCc1ccccc1)N[C@@H](C)C(=O)N1[C@H](C(=O)O)C[C@@H]2CCC[C@@H]21 [ramipril] | 63.0 ± 2.6% and 65.1 ± 0.5% and 68.2 ± 1.1%
 | 65.4 ± 0.5 |  | 63.0 ± 2.0 | 65.2 ± 0.9 | 66.2 ± 0.7 | O=c1c(O)c(-c2ccc(O)c(O)c2)oc2cc(O)cc(O)c12 [quercetin] | 

Where “and” joins values, the source holds several entries; their conditions need not be identical. Equal entries are not always repeated. Where two headings read alike, the source gives them in different places.
